Laboratory results reported in PubChem BioAssay AID1347416 (National Center for Advancing Translational Sciences (NCATS), 2020).
The list shows a part of the results, in another mix than the full data. Some results for these compounds are left out of this collection, so the calls shown say nothing about other tests. Inconclusive results are not listed. The source made the active and inactive calls. Calls follow the shape of the dose curve; as a rule, active = well fitted inhibition curve with a large enough effect; inconclusive = small, poorly fitted or top-dose-only effect; inactive = no such curve, though single readings can be large or run the other way.

Assay: qHTS Validation assay for Inhibitors of Plasmodium falciparum Dd2 growth in vitro; also: nearly all actives have a fitted effect of over 70% in size
Conditions: P. falciparum Dd2 in RBCs, SYBR Green growth, 72 h
Excerpt: Malaria, a parasitic disease spread to humans through the bite of a Plasmodium infected Anopheles mosquito, continues to be a global health burden affecting millions of people, with an estimated 228 million cases and 405,000 deaths in 2018. Concerns about safety and limitations of current antimalarial treatments strongly emphasize the need to develop new therapeutic options. The scarce number of chemotypes and validated drug targets with efficacy against the liver stage, have hindered development of new antimalarials. To address this, a chemoprophylactic drug discovery effort was conducted through a combined phenotypic high-throughput asexual blood stage and liver stage screen, providing a robust foundation to identify liver-stage active lead chemotypes. Compounds were initially screened against Plasmodium falciparum Dd2 strain parasites using a in vitro SYBRGreen-1 based 72 hr proliferation assay to identify novel chemotypes to advance to liver stage assays. NIH/NCATS Early Translation Branch Assay Submitter (PI): Anton Simeonov Ph.D. […]
Potency is read from the fitted curve at half-maximal effect.

SMILES	Potency
CN1CCCC(OC(=O)C(O)(c2ccccc2)c2ccccc2)C1 (stereo unspecified)	active: 13.3 µM
